Yeast mating assay 1: variants of the scFv Ab-14

Values reported by Engelhart et al. 2022, doi:10.1038/s41597-022-01779-4 (FLAb copy).

Target peptide (SARS-CoV-2 spike, HR2 region): PDVDLGDISGINAS

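The starting antibody came from a phage panning campaign against this peptide. AAYL49 was designed without a model: most single CDR substitutions and a random sample of double and triple ones. In AlphaSeq, yeast of one mating type display the scFv and yeast of the other type display the target. The frequency of each diploid, read from paired DNA barcodes, reflects how well the two displayed proteins bind. The ratio of observed to expected reads was calibrated, replicate by replicate, on BCL2-family standards whose Kd was known from biolayer interferometry. Mating was done three times.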

Each scFv is VH, three GGGGS repeats, VL, as in the parent Ab-14, and differs from it in the CDRs of the heavy chain only.
VH: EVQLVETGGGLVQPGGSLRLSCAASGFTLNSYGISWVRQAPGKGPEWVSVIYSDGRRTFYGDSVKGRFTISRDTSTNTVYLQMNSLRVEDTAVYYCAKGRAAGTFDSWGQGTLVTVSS
VL: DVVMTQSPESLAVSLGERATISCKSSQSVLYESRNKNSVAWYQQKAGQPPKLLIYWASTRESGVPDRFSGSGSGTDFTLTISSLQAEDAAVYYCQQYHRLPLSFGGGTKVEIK

The parent's heavy chain CDRs are GFTLNSYGIS, VIYSDGRRTFYGDSVK, GRAAGTFDS; each variant's own CDRs replace them letter for letter.
The read-out is the apparent dissociation constant on a log10 scale (nM): the lower, the stronger.
The mean shown is taken over the replicates in which the pair was detected.
"nd" means that the variant was in the library but no mating with the target was seen in any replicate; the authors take this as a sign of poor binding, and no number exists.
As a blank, each scFv also met three strains without target: over library AAYL49, 15% of these pairings were detected, typically at 4.06 and seldom below 2.83. For each scFv, signals with the empty controls are counted beside the result.
In this assay the parent's reference entry averaged 0.65; its copy inside this library read 4.11 (one replicate of three).

| # | mean, log10 nM | replicates with signal | empty controls | CDR-H1 | CDR-H2 | CDR-H3 |
|---|---|---|---|---|---|---|
| 1 | nd | 0 of 3 | 0 of 9 | GFCLNSYKIS | MIYSDGRRTFYGDSVK | GRAAGTFDS |
| 2 | nd | 0 of 3 | 0 of 9 | GFTLNSHGES | VIYSDGRRTFYGDSVK | GRAADTFDS |
| 3 | nd | 0 of 3 | 2 of 9 | GFTLQSYGIS | VDYSDGRREFYGDSVK | GRAAGTFDS |
| 4 | 3.64 | 2 of 3 | 1 of 9 | GFTLNSYWIS | VIYSDGRRWFYGDSVK | GRAAQTFDS |
| 5 | nd | 0 of 3 | 0 of 9 | GFTLNSYYQS | LIYSDGRRTFYGDSVK | GRAAGTFDS |
| 6 | 3.11 | 3 of 3 | 7 of 9 | GFTLNSFGIS | VIYSDGIRTFYGDYVK | GRAAGTFDS |
| 7 | nd | 0 of 3 | 0 of 9 | GFTLNSQGIS | VIYSDGRNEFYGDSVK | GRAAGTFDS |
| 8 | 4.05 | 1 of 3 | 0 of 9 | GFTLNSYMIC | VIYSDGRRTFRGDSVK | GRAAGTFDS |
| 9 | 3.37 | 3 of 3 | 4 of 9 | GFTLNSYFIS | VIASDGRHTFYGDSVK | GRAAGTFDS |
| 10 | nd | 0 of 3 | 0 of 9 | GNTLNSYGIS | VIYSDGRRTFYGDSVK | SRAAGTFDS |
| 11 | nd | 0 of 3 | 0 of 9 | GFTLNSYGIW | NIYSDGRRTFYGSSVK | GRAAGTFDS |
| 12 | 1.50 | 3 of 3 | 4 of 9 | GFTLNSEGIS | VIYSDGRRTFYGDSVK | QRAAGTLDS |
| 13 | nd | 0 of 3 | 0 of 9 | YFTLNSEGIS | VIYSDGRRTFYGDSVK | GRAAGRFDS |
| 14 | nd | 0 of 3 | 2 of 9 | GFTQNSYGIS | VIYSDWLRTFYGDSVK | GRAAGTFDS |
| 15 | 2.67 | 1 of 3 | 0 of 9 | KFWLNSYGIS | VIYSDGRRTFYGDSVK | GRAAGTFDS |
| 16 | nd | 0 of 3 | 0 of 9 | GFTLNSYGIS | VIYFDGRRTRYGDSVK | GRAAGFFDS |
| 17 | nd | 0 of 3 | 0 of 9 | GFTLNSYGIS | VIYSDGRRTFYGDSVK | GRMAGEDDS |
| 18 | nd | 0 of 3 | 0 of 9 | GFTWNSYGIS | VIESDGRRTFYGDCVK | GRAAGTFDS |
| 19 | nd | 0 of 3 | 1 of 9 | GKTLNSYIIS | VIYSDGRRTFYGDSVK | GRAAGTFDD |
| 20 | nd | 0 of 3 | 0 of 9 | GFTLNSYGIG | VIYSFGRRTFYGDSVQ | GRAAGTFDS |
| 21 | 3.35 | 3 of 3 | 2 of 9 | GFTLNSYGIS | VIYSDGRRTFYGCSVK | GRAACTFAS |
| 22 | 0.90 | 3 of 3 | 2 of 9 | GFTLNSYGIS | VIYSDGRRTFYGDSVK | GGARGTWDS |
| 23 | 3.52 | 1 of 3 | 1 of 9 | GFTLNSYGIS | VIYSDGRCTFYMDSVK | GEAAGTFDS |
| 24 | 3.88 | 1 of 3 | 2 of 9 | GFTLNSYGWS | VICSDGRRTFYGDSVK | GRAMGTFDS |
| 25 | nd | 0 of 3 | 1 of 9 | GFTLNSYGSS | KIYSDGRMTFYGDSVK | GRAAGTFDS |
| 26 | 3.49 | 2 of 3 | 2 of 9 | GCTNNSYGIS | VIYSDGRRTFYGDSVK | GRAAGTFGS |
| 27 | 3.53 | 2 of 3 | 3 of 9 | GFTLNSYSIS | VTYWDGRRTFYGDSVK | GRAAGTFDS |
| 28 | nd | 0 of 3 | 3 of 9 | GFTLNSYGAS | VIYSDGRRTFYGSSVK | GRAAGTFDH |
| 29 | nd | 0 of 3 | 0 of 9 | YFTLNSYGIS | VIYSDGRRTFYGDAVK | GYAAGTFDS |
| 30 | 2.98 | 1 of 3 | 2 of 9 | GFTLQSYGIS | VGYFDGRRTFYGDSVK | GRAAGTFDS |
| 31 | nd | 0 of 3 | 0 of 9 | GFTLNSLGIS | VIYSDGRRTFRGASVK | GRAAGTFDS |
| 32 | nd | 0 of 3 | 1 of 9 | GFTLNSYGID | VIQSDGRATFYGDSVK | GRAAGTFDS |
| 33 | nd | 0 of 3 | 2 of 9 | GFTLNSYGIS | VTYSDGRRTFYMDSVK | GRAASTFDS |
| 34 | 4.29 | 2 of 3 | 8 of 9 | GDTLNQYGIS | VIYSDGRRTFYGDSVK | CRAAGTFDS |
| 35 | 0.76 | 3 of 3 | 2 of 9 | GFTLNLYGIH | VIYSDGRRTAYGDSVK | GRAAGTFDS |
| 36 | nd | 0 of 3 | 0 of 9 | GATLNLYGIS | VIYSDGRRTWYGDSVK | GRAAGTFDS |
| 37 | 4.53 | 2 of 3 | 5 of 9 | GFTLNSYGIS | VIYSDGRRTFYGDRAK | GRAAGPFDS |
| 38 | 3.90 | 2 of 3 | 0 of 9 | GFTLRSYGIS | VHYSDGRRTFYGDSVK | GRAAGNFDS |
| 39 | nd | 0 of 3 | 1 of 9 | GFLLNSYGIY | VIYSPGRRTFYGDSVK | GRAAGTFDS |
| 40 | 3.22 | 3 of 3 | 1 of 9 | GFMLNSYGIS | VIYSDGRRTFYPDEVK | GRAAGTFDS |
| 41 | 5.17 | 1 of 3 | 3 of 9 | GFTLNSYGIS | VIYSDGRRTFYGDSVK | MRAFGTFDS |
| 42 | nd | 0 of 3 | 0 of 9 | GFTLNSDDIS | VIYSDGRRLFYGDSVK | GRAAGTFDS |
| 43 | 5.58 | 2 of 3 | 3 of 9 | GFTLNSYGIS | VIYSDGHRTFYGRSQK | GRAAGTFDS |
| 44 | 3.39 | 2 of 3 | 0 of 9 | GFTLNSYSYS | VIYSDGRRWFYGDSVK | GRAAGTFDS |
| 45 | 1.35 | 3 of 3 | 2 of 9 | GFTLNSYGIS | VIYSDGRRTAYGCSVK | GRQAGTFDS |
| 46 | nd | 0 of 3 | 0 of 9 | GFTLNSYGIS | QIYSDGRRFFYGDSVK | GRAAGTHDS |
| 47 | 3.49 | 1 of 3 | 1 of 9 | GFTLNSCGIS | VIYYDWRRTFYGDSVK | GRAAGTFDS |
| 48 | nd | 0 of 3 | 3 of 9 | GFTLNSYGIS | VIYSDGRTTFYGNSVK | LRAAGTFDS |
| 49 | 3.38 | 1 of 3 | 1 of 9 | GFTLNSYGIS | VIYSDGRRTFWGWSVK | NRAAGTFDS |
| 50 | 4.42 | 3 of 3 | 5 of 9 | GFTLNVYGIS | VIYKDGRRTFYGDSVK | GRAHGTFDS |
| 51 | 4.29 | 1 of 3 | 1 of 9 | GFTLNSYGIS | VIYSDYRRTNYGYSVK | GRAAGTFDS |